## AlphaSeq binding of Ab-14 heavy chain variants to a spike HR2 peptide

From the AlphaSeq antibody data of Li et al. 2023 (doi:10.1038/s41467-023-39022-2), copy in the FLAb collection.

Binding partner: SARS-CoV-2 spike HR2 peptide, sequence PDVDLGDISGINAS.

Each scFv is VH, three GGGGS repeats, VL, as in the parent Ab-14, and differs from it in the CDRs of the heavy chain only.
VH: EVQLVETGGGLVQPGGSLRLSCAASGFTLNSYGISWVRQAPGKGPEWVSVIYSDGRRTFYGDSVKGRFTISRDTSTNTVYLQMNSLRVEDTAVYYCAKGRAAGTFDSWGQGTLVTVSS
VL: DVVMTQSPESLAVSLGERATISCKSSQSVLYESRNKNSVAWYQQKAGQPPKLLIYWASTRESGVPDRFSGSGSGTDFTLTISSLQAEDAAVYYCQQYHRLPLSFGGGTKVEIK

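The parent was found by panning a naive human phage display library on the peptide. These sequences belong to a second round, designed from the earlier measurements on random variants of the parent. Several design methods are mixed in this list. Affinity was read by AlphaSeq, a pooled yeast mating assay with surface-displayed partners. After mating in shaken culture at 30 °C for 16 h, diploids were selected and their barcode pairs sequenced. A regression on co-assayed BCL2-family reference pairs converts the normalised counts of each replicate to an apparent Kd. There are six technical replicates.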

Positions count from residue 1 of the parent VH; S31E puts E in place of S.
Variants here have at most six changes.
Values are apparent Kd, the geometric mean of the replicates that gave a signal; lower means stronger binding.
"nd" means that the variant was in the library but no mating with the target was seen in any replicate; the authors take this as a sign of poor binding, and no number exists.
Three control strains display no target. For all heavy chain designs, 1% of the pairings with them gave a signal, with a median of 120 nM and one signal in twenty below 7.0 nM, so weak values seen in few replicates may be background.

Variant S31E+R56K+F59Q+G61I gave 2.3 nM (6 of 6 replicates). Variant R100Q gave 1.9 nM (1 of 6 replicates). With F105Y+S107A the result was nd (0 of 6 replicates). Variant T28D+R56K+A101T+D106W gave nd (0 of 6 replicates). Variant S31D+G99W+A101N gave 36 nM (6 of 6 replicates). With S31M+S53A+D54Y+F105N+D106K the result was nd (0 of 6 replicates). Variant T28N+S63A+A101I gave 21 nM (6 of 6 replicates). For T28N+R100H+A101E, the assay gave nd (0 of 6 replicates). Variant T28S+F59A+G61Q showed 4.2 nM (6 of 6 replicates).

For T28P+N30E+R56K+R100E, the assay gave 1.6 nM (6 of 6 replicates). Variant T28D+G61K+R100T+D106K gave 3.5 nM (1 of 6 replicates). Variant T28D+R56K+A101E showed 280 pM (6 of 6 replicates). Variant T28G+D106K showed 85 nM (1 of 6 replicates). With S31N+R56H+S63K+A101N the result was nd (0 of 6 replicates). Variant R56V+S63N+K65A+R100D+T104M gave nd (0 of 6 replicates). Variant G26I+R56E+G61D+D62P+R100Q+A101F showed nd (0 of 6 replicates). For L29F+S31Q+I51Q+G61S+T104F, the assay gave nd (0 of 6 replicates). For F27K+T28S+S53A, the assay gave 39 nM (2 of 6 replicates).

Variant T28E+G61Q+R100E+A101V showed 2.1 nM (5 of 6 replicates). Variant N30E+R56K+R100K gave 5.7 nM (5 of 6 replicates). With T28D+G61A+A101Q+S107T the result was 940 pM (6 of 6 replicates). With N30E+G61A+R100H+S107T the result was 1.1 nM (6 of 6 replicates). With T28E+S31E+S63Q+A101T the result was 1.9 nM (4 of 6 replicates). Variant T28D+G61S+R100M showed 2.9 nM (6 of 6 replicates). For G26H+T28S+G61A+R100K, the assay gave 15 nM (6 of 6 replicates). Variant T28L+S31D+A101T showed 2.7 nM (6 of 6 replicates). With N30D+G61T+S107R the result was 1.5 nM (3 of 6 replicates).

For G33Q+R100E+A101Y, the assay gave 120 nM (1 of 6 replicates). Variant T28E+S31E+G61H+S63W+A101T showed 140 nM (4 of 6 replicates). For T28H+G61I+R100K+A101Q, the assay gave nd (0 of 6 replicates). With S31D+S53A+D106I the result was nd (0 of 6 replicates). Variant T28S+S31D+G103L+S107K gave nd (0 of 6 replicates). Variant G26K+T28D+G61D+R100K+A101T gave 3.2 nM (6 of 6 replicates). Variant T28P+G61R showed nd (0 of 6 replicates). Variant G61S+R100S+S107V gave 32 nM (4 of 6 replicates). Variant R100G+D106P showed nd (0 of 6 replicates).

Variant T28V+R100E+A101N+D106F showed nd (0 of 6 replicates). With G61Q+R100Q+S107K the result was 17 nM (4 of 6 replicates). Variant T28Q+F59A+A101Q showed 8.3 nM (6 of 6 replicates). For S53A+A101P+S107Q, the assay gave 15 nM (3 of 6 replicates). Variant G26Q+T28D+G61A+R100N+A101V gave 1.1 nM (6 of 6 replicates). Variant F27N+S53A+G61S showed 1.7 nM (6 of 6 replicates). Variant S31D+F59Q+G61S+A101T showed 4.4 nM (6 of 6 replicates). Variant F27N+T28N+G61I+K65R showed nd (0 of 6 replicates). Variant T28S+S31E+R56K+R100Q gave 560 pM (6 of 6 replicates).

For N30Q+S107T, the assay gave 14 nM (3 of 6 replicates). With T28D+G99R+A102F the result was nd (0 of 6 replicates). Variant T28E+S63D+R100N+A101V+S107K gave 8.9 nM (6 of 6 replicates). For T28K+A101T+S107L, the assay gave 35 nM (6 of 6 replicates).

Excerpt, the final 3 entries:

changes	Kd (apparent)	replicates with signal
T28D+G99R+A102F	nd	0 of 6
T28E+S63D+R100N+A101V+S107K	8.9 nM	6 of 6
T28K+A101T+S107L	35 nM	6 of 6

The parent sequence was in this pool as ten entries: three were never detected, three once, and four in most replicates, with averages from 2.2 nM to 240 nM.
The authors' rule: three or more of the six replicates give a measured affinity, fewer mean a poor binder.
A sequence measured in both rounds can read differently, since the two assays cover different ranges.